{"source": "patent US20090263396A1", "about": "“INHIBITORS OF T-DARPP FOR USE IN COMBINATION ANTI-CANCER THERAPIES” (VANDERBILT UNIVERSITY, priority 2007, published 2009)", "key": {"HR5 cells": {"system": "HR5 cells", "assay": "CellTiter-Glo Luminescent Cell Viability Assay, HR5", "type": "cell-based, human", "conditions": "trastuzumab 5 and 10 μg/ml, 24 h and 48 h; HR5 vs parental BT-474", "from_the_text": "(§1) (FIG. 1B) Protein extracts from non-treated cells (BT-474, HR5, and HR6) were subjected to Western blot analysis of ERBB2 and t-DARPP. […] However, t-DARPP protein levels were dramatically higher in HR5 and HR6 as compared to BT-474 cells. […] (FIG. 1D) Protein extracts from non-treated SKBR-3-t-DARPP-1, SKBR-3-t-DARPP-7, and control SKBR-3 cells were subjected to immunobloting of EBB2 and t-DARPP. […] Gel loading was normalized for equal β-actin.\n(§2) FIGS. 3A-D—Knockdown of t-DARPP induces apoptosis in trastuzumab-resistant and -sensitive breast cancer cells. (FIG. 3A) BT-474, HR5, and HR6 cells were transfected with control scrambled siRNA or t-DARPP siRNA oligonucleotides and then subjected to Titer-Glo-Luminescent Viability Assay 24 hr and 48 hr post-transfection. […] (FIGS. 3B-D) Cells were transfected with control scrambled siRNA or t-DARPP siRNA oligonucleotides. […]\n(§3) Gene expression knockdown by small-interfering RNA (siRNA): The BT-474, HR5 and HR6 cells were transfected with control siRNA (sc-37007) or t-DARPP siRNA (sc-35173, a pool of 3 t-DARPP-specific siRNA oligonucleotides) using siRNA transfection reagent (sc-29528), and transfection medium (sc-36868) following the manufacturer's instructions (Santa Cruz Biotechnology, Santa Cruz, Calif.). […] In addition, AKT, p-Ser473 AKT, HSP90, and BCL2 were analyzed in HR6 cells. […]"}, "BT-474 cells [1]": {"system": "BT-474 cells", "conditions": "Yakes et al., 2002; cited from earlier work"}, "[2]": {"conditions": "human, in vivo; cited from earlier work"}, "[3]": {"system": "SKBR-3 cells stably expressing t-DARPP (Clones #1 and #7)", "assay": "CellTiter-Glo Luminescent Cell Viability Assay, SKBR-3 stably expressing t-DARPP", "type": "cell-based, human", "conditions": "following treatment with trastuzumab; vs control SKBR-3 cells", "from_the_text": "as §1\nVectors: The expression plasmid for t-DARPP was generated by PCR amplification of the full-length coding sequence of t-DARPP and cloned in frame into pcDNA3.1 (Invitrogen Life Technologies, Carlsbad, Calif.). Cloning of t-DARPP was confirmed by sequencing and restriction enzyme digestion as described elsewhere (Belkhiri et al., 2005). Stably transfected SKBR-3 cells expressing t-DARPP or pcDNA3.1 empty vector were generated as described previously (Belkhiri et al., 2005). After selection with 400 μg/ml of neomycin (Invitrogen Life Technologies, Carlsbad, Calif.), the resulting resistant clones were screened for t-DARPP protein expression by Western blot analysis.\nCell survival assay: 5×10^3 cells (BT474, HR5 and HR6 cells) per well were plated in a 96-well plate. […] This assay has high sensitivity in measurement of cell survival and can detect as little as a single cell or 0.01 picomoles of ATP. […]"}, "SKBR-3 cells": {"system": "SKBR-3 cells", "conditions": "Yakes et al., 2002; cited from earlier work"}, "HR6 cells": {"system": "HR6 cells", "assay": "CellTiter-Glo Luminescent Cell Viability Assay, HR6", "type": "cell-based, human", "conditions": "trastuzumab 5 and 10 μg/ml, 24 h and 48 h; HR6 vs parental BT-474", "from_the_text": "as §1, §2, §3"}, "BT-474 cells [4]": {"system": "BT-474 cells", "assay": "CellTiter-Glo Luminescent Cell Viability Assay, BT-474", "type": "cell-based, human", "conditions": "trastuzumab 5 and 10 μg/ml, 24 h and 48 h; BT-474 compared to HR5 and HR6", "from_the_text": "as §1, §2, §3"}}}
{"substance": "trastuzumab", "values": [{"measurement": "Cell survival", "setting": "HR5 cells", "result": "increased cell survival"}, {"measurement": "IC50", "setting": "BT-474 cells [1]", "result": "0.2 to 0.5", "unit": "µg/mL"}, {"measurement": "patients unable to tolerate the drug because of pre-existing heart problems", "setting": "[2]", "result": "Approximately 10 % of patients"}, {"measurement": "Cell survival", "setting": "[3]", "result": "markedly higher"}, {"measurement": "IC50", "setting": "SKBR-3 cells", "result": "0.2 to 0.5", "unit": "µg/mL"}, {"measurement": "Cell survival", "setting": "HR6 cells", "result": "increased cell survival"}, {"measurement": "Cell survival", "setting": "BT-474 cells [4]", "result": "significantly lower"}]}
